The data set is described as follows: Aqueous solubility test. It counts as physicochemical. On the procedure: The pH of the mixtures was held constant during the study. Excess amounts or a known amount of each component are added to 1 or 0.5 ml of buffer solution and the mixtures were stirred at rt for 48 hours or less, filtered (0.45 μm Millipore) and analyzed by HPLC.

This note sets out measurements from patent US10413557B2, “Prodrugs of 17.BETA.-HSD1-inhibitors” (FORENDO PHARMA LTD, priority 2014, dated 2019).

As for “Phosphoric acid mono-{(13S,15R)-17-[(E)-methoxyimino]-13-methyl-15-[2-(5-methylthiazol-2-ylcarbamoyl)ethyl-7,8,9,11,12,13,14,15,16,17-decahydro-6H-cyclopenta[a]phenanthren-3-yl} ester disodium salt [Compound 1a]”, the “aqueous solubility, in words” value (comment on Table 5, compared with parent VIV-1) was “improved aqueous solubility”. The “Aqueous solubility, buffer at pH 7.4” value (rt, buffer pH 7.4, stirred 48 hours or less, HPLC) is “over 35 mg/ml”.
